One substance from US20110098180A1, “Herbicide-Resistant Plants, And Polynucleotides And Methods For Providing Same” (United States Department of Agriculture, priority 2002, published 2011) can be followed below.

Sequences of proteins named here, by UniProt entry; tags and fusion partners are left off. Residues count along the entry.
UniProt Q66PY0, 1-580 R304F: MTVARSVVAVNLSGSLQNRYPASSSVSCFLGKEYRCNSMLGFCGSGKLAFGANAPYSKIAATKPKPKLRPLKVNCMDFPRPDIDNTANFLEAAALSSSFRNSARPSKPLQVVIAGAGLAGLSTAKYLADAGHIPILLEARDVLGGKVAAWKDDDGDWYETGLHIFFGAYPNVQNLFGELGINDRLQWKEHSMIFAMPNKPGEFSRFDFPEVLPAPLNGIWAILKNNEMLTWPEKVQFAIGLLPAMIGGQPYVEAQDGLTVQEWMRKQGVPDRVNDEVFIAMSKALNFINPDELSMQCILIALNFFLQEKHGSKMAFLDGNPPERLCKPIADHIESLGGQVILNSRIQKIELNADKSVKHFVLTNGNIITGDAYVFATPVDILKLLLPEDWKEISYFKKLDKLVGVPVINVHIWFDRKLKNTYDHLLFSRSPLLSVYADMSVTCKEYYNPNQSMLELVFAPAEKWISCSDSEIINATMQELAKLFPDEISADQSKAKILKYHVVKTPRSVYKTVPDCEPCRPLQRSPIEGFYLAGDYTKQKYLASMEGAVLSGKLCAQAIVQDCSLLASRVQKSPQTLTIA
UniProt Q66PY0, 1-580 R304M: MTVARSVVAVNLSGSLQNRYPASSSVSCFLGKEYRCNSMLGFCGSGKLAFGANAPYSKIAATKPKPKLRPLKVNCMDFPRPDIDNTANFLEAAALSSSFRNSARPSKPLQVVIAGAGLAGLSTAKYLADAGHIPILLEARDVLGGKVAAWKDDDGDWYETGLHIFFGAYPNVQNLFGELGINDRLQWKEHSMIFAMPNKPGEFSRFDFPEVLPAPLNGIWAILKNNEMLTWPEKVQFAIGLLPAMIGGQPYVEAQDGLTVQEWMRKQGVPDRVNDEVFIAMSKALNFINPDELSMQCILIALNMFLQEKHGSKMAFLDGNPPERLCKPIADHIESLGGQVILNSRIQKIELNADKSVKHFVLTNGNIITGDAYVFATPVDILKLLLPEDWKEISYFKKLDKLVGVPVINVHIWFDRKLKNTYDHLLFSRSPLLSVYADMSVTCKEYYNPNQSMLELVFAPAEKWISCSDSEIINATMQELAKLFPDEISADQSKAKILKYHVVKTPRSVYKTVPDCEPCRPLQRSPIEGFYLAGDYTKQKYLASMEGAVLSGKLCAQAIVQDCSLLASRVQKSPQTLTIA
UniProt Q66PY0, 1-580 R304T: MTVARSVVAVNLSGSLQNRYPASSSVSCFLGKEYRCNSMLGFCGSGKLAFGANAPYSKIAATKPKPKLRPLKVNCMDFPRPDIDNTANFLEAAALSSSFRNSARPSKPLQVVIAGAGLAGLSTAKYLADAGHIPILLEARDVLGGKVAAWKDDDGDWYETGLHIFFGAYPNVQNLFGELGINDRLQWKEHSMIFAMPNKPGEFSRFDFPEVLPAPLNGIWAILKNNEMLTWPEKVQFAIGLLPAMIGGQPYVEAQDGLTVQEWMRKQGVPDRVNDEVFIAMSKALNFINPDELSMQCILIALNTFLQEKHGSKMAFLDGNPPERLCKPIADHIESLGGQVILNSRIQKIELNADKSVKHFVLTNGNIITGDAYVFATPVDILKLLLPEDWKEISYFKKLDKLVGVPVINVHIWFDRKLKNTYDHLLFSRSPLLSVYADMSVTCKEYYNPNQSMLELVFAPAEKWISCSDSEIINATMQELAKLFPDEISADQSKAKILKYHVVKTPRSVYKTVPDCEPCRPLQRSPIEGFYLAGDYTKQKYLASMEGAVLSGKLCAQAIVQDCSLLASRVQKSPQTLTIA
UniProt Q66PY0, 1-580 R304D: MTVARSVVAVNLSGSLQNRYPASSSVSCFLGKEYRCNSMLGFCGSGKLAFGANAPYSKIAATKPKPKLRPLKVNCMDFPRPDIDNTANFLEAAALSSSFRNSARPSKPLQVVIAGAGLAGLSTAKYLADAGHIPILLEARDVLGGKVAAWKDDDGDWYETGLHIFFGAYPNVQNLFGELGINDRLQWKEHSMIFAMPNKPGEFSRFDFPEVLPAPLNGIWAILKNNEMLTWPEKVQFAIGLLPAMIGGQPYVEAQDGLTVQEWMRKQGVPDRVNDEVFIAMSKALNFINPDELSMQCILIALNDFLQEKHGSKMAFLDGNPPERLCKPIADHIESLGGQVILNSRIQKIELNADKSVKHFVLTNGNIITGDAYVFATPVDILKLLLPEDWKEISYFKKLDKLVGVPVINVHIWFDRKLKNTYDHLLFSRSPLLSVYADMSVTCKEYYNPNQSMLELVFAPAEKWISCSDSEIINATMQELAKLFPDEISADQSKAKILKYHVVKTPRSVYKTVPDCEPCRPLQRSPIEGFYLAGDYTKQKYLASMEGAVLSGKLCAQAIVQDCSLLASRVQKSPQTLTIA
UniProt Q66PY0, 1-580 R304V: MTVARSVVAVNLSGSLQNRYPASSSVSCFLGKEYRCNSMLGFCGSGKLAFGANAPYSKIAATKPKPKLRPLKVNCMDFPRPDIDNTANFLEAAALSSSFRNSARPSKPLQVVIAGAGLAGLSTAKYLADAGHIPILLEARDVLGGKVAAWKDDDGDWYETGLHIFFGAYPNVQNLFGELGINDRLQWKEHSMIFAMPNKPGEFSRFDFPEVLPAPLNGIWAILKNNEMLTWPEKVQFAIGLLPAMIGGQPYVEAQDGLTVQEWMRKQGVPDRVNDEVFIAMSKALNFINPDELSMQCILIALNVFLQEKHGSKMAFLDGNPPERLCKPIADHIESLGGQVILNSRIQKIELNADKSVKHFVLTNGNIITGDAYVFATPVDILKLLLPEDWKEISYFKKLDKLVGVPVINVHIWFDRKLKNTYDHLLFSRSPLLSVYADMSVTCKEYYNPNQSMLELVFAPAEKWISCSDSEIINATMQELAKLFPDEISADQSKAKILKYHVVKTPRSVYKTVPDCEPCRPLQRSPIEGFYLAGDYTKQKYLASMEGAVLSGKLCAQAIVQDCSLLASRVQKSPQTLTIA
UniProt Q66PY0, 1-580 R304A: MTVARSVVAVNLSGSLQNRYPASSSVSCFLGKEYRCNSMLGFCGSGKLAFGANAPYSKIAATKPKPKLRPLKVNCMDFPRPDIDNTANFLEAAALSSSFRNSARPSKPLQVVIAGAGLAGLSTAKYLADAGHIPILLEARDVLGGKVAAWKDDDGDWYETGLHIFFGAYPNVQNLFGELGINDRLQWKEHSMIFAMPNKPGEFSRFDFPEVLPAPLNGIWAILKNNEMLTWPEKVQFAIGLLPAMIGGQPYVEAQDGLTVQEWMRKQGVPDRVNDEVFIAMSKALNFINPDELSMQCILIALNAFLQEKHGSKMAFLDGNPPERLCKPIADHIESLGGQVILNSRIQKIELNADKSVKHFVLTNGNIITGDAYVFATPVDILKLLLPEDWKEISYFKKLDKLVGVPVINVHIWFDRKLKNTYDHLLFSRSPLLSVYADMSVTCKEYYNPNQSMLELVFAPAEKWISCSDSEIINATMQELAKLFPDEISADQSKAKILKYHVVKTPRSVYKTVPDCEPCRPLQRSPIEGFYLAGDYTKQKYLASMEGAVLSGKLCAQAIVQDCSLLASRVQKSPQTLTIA
UniProt Q66PY0, 1-580 R304K: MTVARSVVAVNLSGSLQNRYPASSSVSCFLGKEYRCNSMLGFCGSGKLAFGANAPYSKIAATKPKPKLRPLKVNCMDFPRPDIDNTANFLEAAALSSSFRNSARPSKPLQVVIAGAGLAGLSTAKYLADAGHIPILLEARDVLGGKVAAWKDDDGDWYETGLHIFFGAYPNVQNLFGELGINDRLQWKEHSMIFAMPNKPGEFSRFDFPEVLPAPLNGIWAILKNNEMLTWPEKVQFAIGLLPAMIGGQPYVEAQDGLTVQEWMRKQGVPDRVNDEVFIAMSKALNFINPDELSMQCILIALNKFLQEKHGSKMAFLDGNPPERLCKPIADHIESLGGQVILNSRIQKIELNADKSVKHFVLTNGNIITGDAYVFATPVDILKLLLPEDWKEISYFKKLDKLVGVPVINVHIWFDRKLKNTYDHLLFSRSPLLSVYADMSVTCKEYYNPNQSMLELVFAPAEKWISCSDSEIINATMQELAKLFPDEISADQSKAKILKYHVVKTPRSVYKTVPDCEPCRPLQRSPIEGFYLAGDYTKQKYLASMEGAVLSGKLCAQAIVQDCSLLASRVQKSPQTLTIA
UniProt Q66PY0, 1-580 R304L: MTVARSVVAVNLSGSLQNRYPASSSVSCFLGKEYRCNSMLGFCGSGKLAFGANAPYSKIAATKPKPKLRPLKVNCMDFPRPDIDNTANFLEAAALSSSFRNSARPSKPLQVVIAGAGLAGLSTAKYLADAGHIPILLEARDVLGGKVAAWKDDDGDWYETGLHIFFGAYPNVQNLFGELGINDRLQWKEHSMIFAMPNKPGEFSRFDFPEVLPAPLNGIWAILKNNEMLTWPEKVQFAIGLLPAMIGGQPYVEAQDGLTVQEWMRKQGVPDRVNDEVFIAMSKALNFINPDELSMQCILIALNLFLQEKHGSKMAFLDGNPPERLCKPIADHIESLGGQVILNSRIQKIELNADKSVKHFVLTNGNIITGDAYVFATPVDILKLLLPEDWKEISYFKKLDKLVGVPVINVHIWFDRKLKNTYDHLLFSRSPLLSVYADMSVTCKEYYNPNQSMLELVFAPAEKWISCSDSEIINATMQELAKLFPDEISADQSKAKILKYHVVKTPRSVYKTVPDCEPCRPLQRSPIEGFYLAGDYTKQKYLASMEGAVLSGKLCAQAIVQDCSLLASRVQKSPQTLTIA
UniProt Q66PY0, 1-580 R304N: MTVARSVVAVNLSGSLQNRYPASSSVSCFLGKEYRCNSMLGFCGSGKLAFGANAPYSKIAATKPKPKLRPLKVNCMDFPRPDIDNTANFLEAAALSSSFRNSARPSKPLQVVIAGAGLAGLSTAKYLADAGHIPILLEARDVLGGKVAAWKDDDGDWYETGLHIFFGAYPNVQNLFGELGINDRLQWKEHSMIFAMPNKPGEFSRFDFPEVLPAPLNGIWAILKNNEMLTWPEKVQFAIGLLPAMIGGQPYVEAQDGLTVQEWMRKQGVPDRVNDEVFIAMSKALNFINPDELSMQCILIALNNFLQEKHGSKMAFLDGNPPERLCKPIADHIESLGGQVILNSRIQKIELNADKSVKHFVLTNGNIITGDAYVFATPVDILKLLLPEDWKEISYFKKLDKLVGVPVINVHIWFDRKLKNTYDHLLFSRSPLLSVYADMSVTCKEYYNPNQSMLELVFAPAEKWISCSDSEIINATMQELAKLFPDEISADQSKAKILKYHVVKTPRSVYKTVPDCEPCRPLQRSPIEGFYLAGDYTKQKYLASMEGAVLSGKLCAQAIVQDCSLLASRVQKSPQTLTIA
UniProt Q66PY0, 1-580 R304E: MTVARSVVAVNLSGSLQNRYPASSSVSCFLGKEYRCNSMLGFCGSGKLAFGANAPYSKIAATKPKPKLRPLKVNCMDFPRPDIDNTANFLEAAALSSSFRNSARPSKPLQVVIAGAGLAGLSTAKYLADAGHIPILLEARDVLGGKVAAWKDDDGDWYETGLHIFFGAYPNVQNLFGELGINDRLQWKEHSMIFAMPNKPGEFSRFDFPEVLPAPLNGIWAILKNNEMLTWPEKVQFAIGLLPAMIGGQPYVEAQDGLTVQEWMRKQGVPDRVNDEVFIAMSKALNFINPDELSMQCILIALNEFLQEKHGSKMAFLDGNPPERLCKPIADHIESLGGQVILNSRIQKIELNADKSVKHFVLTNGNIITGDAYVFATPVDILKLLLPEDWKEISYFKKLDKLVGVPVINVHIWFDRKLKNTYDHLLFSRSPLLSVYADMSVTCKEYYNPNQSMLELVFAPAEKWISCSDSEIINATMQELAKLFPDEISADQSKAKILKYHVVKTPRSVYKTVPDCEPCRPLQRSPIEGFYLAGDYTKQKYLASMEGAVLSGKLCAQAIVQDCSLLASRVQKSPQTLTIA
UniProt Q66PY0, 1-580 R304G: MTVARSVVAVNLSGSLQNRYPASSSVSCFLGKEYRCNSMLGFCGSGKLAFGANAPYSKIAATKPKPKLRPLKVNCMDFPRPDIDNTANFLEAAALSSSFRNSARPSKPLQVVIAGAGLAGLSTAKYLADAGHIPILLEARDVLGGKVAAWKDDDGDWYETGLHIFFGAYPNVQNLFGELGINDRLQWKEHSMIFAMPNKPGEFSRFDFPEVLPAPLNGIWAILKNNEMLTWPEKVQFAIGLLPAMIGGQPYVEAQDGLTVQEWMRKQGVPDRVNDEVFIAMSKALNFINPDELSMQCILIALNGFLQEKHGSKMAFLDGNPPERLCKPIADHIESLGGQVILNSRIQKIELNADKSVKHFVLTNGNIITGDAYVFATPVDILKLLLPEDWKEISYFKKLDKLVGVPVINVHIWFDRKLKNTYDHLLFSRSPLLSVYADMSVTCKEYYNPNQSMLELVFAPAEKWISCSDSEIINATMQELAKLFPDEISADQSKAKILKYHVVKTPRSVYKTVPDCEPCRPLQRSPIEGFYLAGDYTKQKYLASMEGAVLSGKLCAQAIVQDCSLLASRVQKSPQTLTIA

Holding throughout (assay): Fluridone enzyme inhibition assay, non-His-tagged PDS (Table 1)
Common to all, as to format: biochemical

Assay [1] has as its target Hydrilla PDS Arg^304 → Phenyalanine (Hydrilla verticillata, UniProt Q66PY0, R304F). The conditions noted are these: read-out: I50, construct not in frame with LacZalpha-ccdB. Here is the method: (§1) The expression constructs in Table 1 were derived from an original clone of the susceptible PDS gene from Hydrilla and then the Arg^304 was mutated to the listed amino acid. Expression was under the control of the lac promoter […] with the initiation codon of the LacZalpha-ccdB gene in the pCR4-TOPO vector (Invitrogen Inc., CA, Cat. #K4575-01).
(§2) All mutagenesis was performed, unless stated otherwise, using the TOPO-vector containing the wildtype (H4) PDS-sequence, which was extracted from an overnight culture with the Qiagen Plasmid Prep Kit as described above. The amount of the extracted plasmid was diluted to 10 ng/μl and used as template in a mutagenesis-procedure using the QuikChange Site-directed Mutagenesis Kit (Stratagene, Calif., #200518). The design of the mutagenesis-primers was conducted according to the manufacturers protocol to enable the specific change of Arg^304-codon to code for the desired amino acid. Primers (purchased from MWG-Biotech) and their introduced amino acid change are listed below with the changed codon underlined:
(§3) The reactions were performed according to the manufacturers protocol. Reactions were set up in MicroAmp-tubes on ice with 38 μl ddH2O, 5 μl 10× reaction buffer, 2 μl plasmid (10 ng/μl), 1.25 μl forward-mutagenesis primer (100 ng/μl), 1.25 μl of reverse mutagenesis primer (100 ng/μl), 1 μl dNTP-mix and 1 μl PfuTurboDNA polymerase (2.5 U/μl). The reactions were placed in a PE 9700 thermal cycler and heated to 95° C. for 30 sec followed by 12 rounds at 95° C. for 30 sec, 55° C. for 1 min and 68° C. for 12 min. The PCR was followed by a DpnI-digestion and transformation in XL1-Blue supercompetent cells as described in the manual. 4-6 resulting colonies were grown overnight in LB-medium with kanamycin and plasmid DNA was isolated as described above. The plasmid was used as template for sequencing with M13 and internal PDS-primers as described above on a LiCOR-system. Sequences were assembled and analyzed using Seqman. Introduced mutations were identified and plasmids carrying the desired mutation(s) were transferred into competent TOP10-cells, using the transformation protocol from the TOPO TA Cloning Kit. Resulting colonies were grown overnight in Wu-broth with kanamycin, aliquoted and stored at −80° C. until further use. 1 ml of Wu-cultures was used to start 1-L LB-cultures with kanamycin as described before, to express active PDS-enzyme for testing as described.
(§4) Phytoene desaturase activity and its inhibition by herbicides was determined using an in vitro system using components derived from the in vivo production of phytoene and phytoene desaturase proteins. All mutations described in Examples 3 and 4 were tested. […] The clones were used for the heterologous expression of Hydrilla-PDS-enzyme. In particular, bacterial cultures were grown from single colonies overnight in Wu-broth (6.27 g/L K2HPO4, 1.8 g/L KH2PO4, 0.5 g/L Na-citrate, 0.9 g/L (NH4)2SO4, 10 g/L tryptone, 5 g/L yeast extract, 10 g/L NaCl, 44 ml/L glycerol, 0.1 mM MgSO4, pH 7.2) with kanamycin. 1-mL was aliquoted in centrifuge tube and stored at −80° C. For expression, 1 L LB-medium with kanamycin was inoculated with 1-mL Wu-culture and grown for 24 h at 37° C. to stationary phase with shaking at 200 rpm. The cells were collected by centrifugation at 2000×g. All of the following steps were done at 4° C. unless otherwise noted. Active soluble PDS enzyme was extracted by lysing the transformed E. coli cells using a French Press at 20,000 psi in assay buffer consisting of 100 mM Tris-HCl, pH 7.2, 10 mM magnesium-chloride, 0.1 mM NADP, 0.1 mM FAD, 10 mM cysteine, 5 mM DTT, 1 mM aminocaproic acid, and 1 μg/ml leupeptin. The soluble fraction containing PDS activity was obtained by centrifugation for 10 min at 1200×g. After 24 h they were centrifuged down and used in PDS enzyme activity assays as described below.

For assay [2], the target named is Hydrilla PDS Arg^304 → Methionine (Hydrilla verticillata, UniProt Q66PY0, R304M). The note with it: read-out: I50, construct not in frame with LacZalpha-ccdB. Here is the method: as §1, §2, §3, §4
Assay [3] concerns the target Hydrilla PDS Arg^304 → Threonine (Hydrilla verticillata, UniProt Q66PY0, R304T). The note with it: read-out: I50, construct not in frame with LacZalpha-ccdB. Here is the method:
as §1, §2, §3, §4

The target in assay [4] is Hydrilla PDS Arg^304 → Aspartic acid (Hydrilla verticillata, UniProt Q66PY0, R304D). The note with it: read-out: I50, construct not in frame with LacZalpha-ccdB. Here is the method: as §1, §2, §3, §4
Assay [5] concerns the target Hydrilla PDS Arg^304 → Valine (Hydrilla verticillata, UniProt Q66PY0, R304V). The conditions noted are these: read-out: I50, construct not in frame with LacZalpha-ccdB. Here is the method: as §1, §2, §3, §4
The target of assay [6] is Hydrilla PDS Arg^304 → Alanine (Hydrilla verticillata, UniProt Q66PY0, R304A). The note with it: read-out: I50, construct not in frame with LacZalpha-ccdB. Here is the method: as §1, §2, §3, §4
Assay [7] deals with Hydrilla PDS Arg^304 → Lysine (Hydrilla verticillata, UniProt Q66PY0, R304K). The conditions noted are these: read-out: I50, construct not in frame with LacZalpha-ccdB. Here is the method: as §1, §2, §3, §4
Assay [8] deals with Hydrilla PDS Arg^304 → Leucine (Hydrilla verticillata, UniProt Q66PY0, R304L). The note with it: construct not in frame with LacZalpha-ccdB, read-out: I50. Here is the method: as §1, §2, §3, §4
For assay [9], the target named is Hydrilla PDS Arg^304 → Asparagine (Hydrilla verticillata, UniProt Q66PY0, R304N). The conditions noted are these: read-out: I50, construct not in frame with LacZalpha-ccdB. Here is the method: as §1, §2, §3, §4
Assay [10] addresses Hydrilla PDS Arg^304 → Glutamic acid (Hydrilla verticillata, UniProt Q66PY0, R304E). The note with it: read-out: I50, construct not in frame with LacZalpha-ccdB. Here is the method:
as §1, §2, §3, §4

Assay [11] concerns the target Hydrilla PDS Arg^304 → Glycine (Hydrilla verticillata, UniProt Q66PY0, R304G). The note with it: read-out: I50, construct not in frame with LacZalpha-ccdB. Here is the method: as §1, §2, §3, §4
The target in assay [12] is Hydrilla PDS Arg^304 Arginine (wildtype) (Hydrilla verticillata, UniProt Q66PY0). The conditions noted are these: Arginine at 304 (susceptible); construct not in frame with LacZalpha-ccdB; read-out: I50. Here is the method:
as §1, §2, §3, §4

The target of assay [13] is Hydrilla PDS Arg^304 → Isoleucine (Hydrilla verticillata, UniProt Q66PY0, R304I). The conditions noted are these: read-out: I50, construct not in frame with LacZalpha-ccdB. Here is the method:
as §1, §2, §3, §4

In assay [14] the target is Hydrilla PDS Arg^304 → Tyrosine (Hydrilla verticillata, UniProt Q66PY0, R304Y). The note with it: read-out: I50, construct not in frame with LacZalpha-ccdB. Here is the method:
as §1, §2, §3, §4

In assay [15] the target is Hydrilla PDS Arg^304 → Glutamine (Hydrilla verticillata, UniProt Q66PY0, R304Q). The conditions noted are these: read-out: I50, construct not in frame with LacZalpha-ccdB. Here is the method:
as §1, §2, §3, §4

Take Fluridone: the IC50 in assay [1] was 0.53 µM; in assay [2], 2.3 µM; in assay [3], 10 µM; in assay [4] it was 2 µM; in assay [5], 2.2 µM; in [6], 4.5 µM. The IC50 in assay [7] worked out at 1 µM; in assay [8], 3.2 µM; in [9], 0.63 µM; in assay [10], 0.31 µM; in assay [11], 0.64 µM; in assay [12], 0.2 µM. Also, the IC50 in assay [13] was found to be 2 µM; in assay [14], 0.81 µM; in assay [15], 3.8 µM.
